The values below are quoted from earlier work in patent US8575183B2, “Heterocyclic compounds and their uses” (priority 2010, dated 2013).

The series has as its system Class I PI3 kinase isoforms. As to conditions: cited from earlier work.

`Cc1ccccc1-n1c(Cn2cnc3c(N)ncnc32)nc2cccc(C)c2c1=O` [IC87114]: the “selectivity against p110α” value (p110δ against p110α) was “greater than 100 fold”. The “selectivity against p110β” value (p110δ against p110β) is on record as 52 fold. Further, the “selectivity against p110γ” value (p110δ against p110γ) is listed as “approx. 8 fold”.
